Results published in PMC11477717, “Synthesis of Carborane–Thiazole Conjugates as Tyrosinase and 11β-Hydroxysteroid Dehydrogenase Inhibitors: Antiproliferative Activity and Molecular Docking Studies” (Molecules, 2024).
Read-outs that look alike come from different tables or passages of the source.

Amino acid sequences for entries named in this document (tags omitted). Residues count along the entry.
UniProt C7FF04, 1-392 limits assumed: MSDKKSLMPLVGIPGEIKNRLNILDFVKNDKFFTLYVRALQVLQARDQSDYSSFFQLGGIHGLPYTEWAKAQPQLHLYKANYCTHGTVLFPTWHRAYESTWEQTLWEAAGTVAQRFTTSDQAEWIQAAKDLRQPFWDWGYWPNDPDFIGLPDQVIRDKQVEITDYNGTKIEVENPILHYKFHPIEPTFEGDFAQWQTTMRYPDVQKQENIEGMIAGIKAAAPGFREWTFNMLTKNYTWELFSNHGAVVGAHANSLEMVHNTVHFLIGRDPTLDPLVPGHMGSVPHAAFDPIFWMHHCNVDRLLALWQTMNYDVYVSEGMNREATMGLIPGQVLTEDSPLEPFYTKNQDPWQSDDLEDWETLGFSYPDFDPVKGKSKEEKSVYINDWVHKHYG

Molecular target: T1, mushroom tyrosinase (Agaricus bisporus, UniProt C7FF04)
T1 construct: purchased Sigma-Aldrich
Test: Mushroom tyrosinase inhibition assay (L-DOPA, dopachrome 475 nm)
Assay type: biochemical
Protocol: The mushroom tyrosinase (Sigma-Aldrich) inhibition was performed following previously reported methods. […] The inhibitor solutions were prepared in DMSO with an initial concentration of 1 mM. Different aliquots were added to the solution containing the buffer, L-DOPA, and EDTA, with the enzyme being added last. […] Ascorbic acid was used as a reference inhibitor with an initial concentration of 1 mM. The IC50 values were calculated from the equation generated via exponential fit of the experimental data.

[1] = L-DOPA 0.17 mM, pH 6.8, room temperature, read-out: IC50 ± SD mushroom tyrosinase

Substance: 4-(2-(2-(1,2-Dicarba-closo-Dodecaboranylmethylene)Hydrazinyl)Thiazol-4-yl)Benzene-1-Sulfonyl Fluoride [4j]
- IC50 [1]: 0.361 ± 0.119 mM

Substance: 4-(2-(2-(1,2-Dicarba-closo-Dodecaboranylmethylene)Hydrazinyl)Thiazol-4-yl)Benzonitrile [4h]
- IC50 [1]: 0.0113 ± 0.0059 mM
- IC50 (rounded values in SAR summary, unit mM, read-out: IC50 tyrosinase inhibition): 0.011 mM
